Measured values published in patent US8518957B2, “Methanocarba adenosine derivatives, pharmaceutical compositions, and method of reducing intraocular pressure” (The United States of America, as represented by the …, priority 2009, dated 2013).

By UniProt entry, the sequences of proteins in these tests, tags left out.
UniProt P0DMS8, whole entry: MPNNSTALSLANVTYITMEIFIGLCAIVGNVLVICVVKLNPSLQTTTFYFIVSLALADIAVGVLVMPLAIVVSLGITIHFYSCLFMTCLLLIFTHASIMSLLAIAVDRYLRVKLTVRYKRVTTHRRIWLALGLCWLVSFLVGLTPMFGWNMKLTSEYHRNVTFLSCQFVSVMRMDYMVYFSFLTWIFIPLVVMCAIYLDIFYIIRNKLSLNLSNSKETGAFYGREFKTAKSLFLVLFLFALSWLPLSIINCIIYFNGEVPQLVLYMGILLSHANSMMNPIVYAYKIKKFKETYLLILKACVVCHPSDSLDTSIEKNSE

Target: T1, human A3AR (Homo sapiens, UniProt P0DMS8)
T1 construct: expressed in transfected cells
Assay: Cyclic AMP accumulation assay: inhibition of forskolin-stimulated cyclic AMP production in AR-transfected CHO cells
Format: cell-based
Conditions: for % Inhibition of cAMP formation at hA3 AR: at 10 μM, in comparison to the maximal effect of full agonist NECA at 10 μM; for % Inhibition of cAMP accumulation at the hA3AR: concentration 1.0 μM, in comparison to full agonist NECA at 1 μM

Row | Structure (SMILES) | % Inhibition of cAMP formation at hA3 AR | % Inhibition of cAMP accumulation at the hA3AR
1 | CCNC(=O)[C@H]1O[C@@H](n2cnc3c(N)ncnc32)[C@H](O)[C@@H]1O [NECA, 5′-N-ethylcarboxamidoadenosine, reference compound] | 100% | 100%
2 | CNC(=O)[C@H]1O[C@@H](n2cnc3c(NCc4cccc(I)c4)nc(Cl)nc32)[C@H](O)[C@@H]1O [Cl-IB-MECA, 2-chloro-N^6-(3-iodobenzyl)-5′-N-methylcarboxamidoadenosine, reference compound] | 97% | 97%
